From patent US20230038929A1, “Fused Tricyclic Heterocyclic Compounds and Uses Thereof” (Verge Analytics, Inc., priority 2019, published 2023)

Amino acid sequences for entries named in this document (tags omitted). A change or cut given only in a name is not applied to a line headed by its entry.
UniProt P48736: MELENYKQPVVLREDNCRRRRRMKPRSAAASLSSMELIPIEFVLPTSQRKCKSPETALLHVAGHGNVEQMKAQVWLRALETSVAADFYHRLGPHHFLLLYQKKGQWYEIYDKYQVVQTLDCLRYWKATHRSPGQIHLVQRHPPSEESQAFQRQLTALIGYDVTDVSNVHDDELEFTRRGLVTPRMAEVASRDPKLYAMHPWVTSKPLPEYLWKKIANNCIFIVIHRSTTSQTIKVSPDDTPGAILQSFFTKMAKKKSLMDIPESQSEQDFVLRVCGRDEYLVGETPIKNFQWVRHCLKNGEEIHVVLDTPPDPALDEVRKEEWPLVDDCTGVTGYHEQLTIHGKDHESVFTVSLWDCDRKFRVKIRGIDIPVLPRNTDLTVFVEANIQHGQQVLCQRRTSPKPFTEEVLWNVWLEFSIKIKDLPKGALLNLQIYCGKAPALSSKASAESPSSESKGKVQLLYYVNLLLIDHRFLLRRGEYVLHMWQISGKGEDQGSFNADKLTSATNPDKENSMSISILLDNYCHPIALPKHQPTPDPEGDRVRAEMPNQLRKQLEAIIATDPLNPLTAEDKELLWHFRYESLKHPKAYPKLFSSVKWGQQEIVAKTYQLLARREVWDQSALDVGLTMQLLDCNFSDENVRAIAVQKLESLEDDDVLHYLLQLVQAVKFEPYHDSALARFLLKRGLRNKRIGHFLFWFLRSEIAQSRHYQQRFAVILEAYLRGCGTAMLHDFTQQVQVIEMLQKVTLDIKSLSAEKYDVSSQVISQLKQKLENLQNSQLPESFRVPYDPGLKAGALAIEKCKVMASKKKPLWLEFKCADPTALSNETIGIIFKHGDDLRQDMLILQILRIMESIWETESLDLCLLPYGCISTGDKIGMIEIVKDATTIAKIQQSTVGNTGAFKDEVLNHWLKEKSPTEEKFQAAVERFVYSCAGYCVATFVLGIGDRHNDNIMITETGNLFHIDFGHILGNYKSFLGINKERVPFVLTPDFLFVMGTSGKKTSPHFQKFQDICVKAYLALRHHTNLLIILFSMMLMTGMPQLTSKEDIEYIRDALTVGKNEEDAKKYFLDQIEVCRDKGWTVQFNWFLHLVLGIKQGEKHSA

Molecular target: PI3Kγ (p120γ) (Homo sapiens, UniProt P48736)
Experiment: Inhibition of PI3K isoforms: PI3Kγ
Conditions: read-out: PI3Kγ IC50; 10 nM enzyme, ATP 100 μM, 1 μM PIP2, 3 h room temperature

SMILES: O=C(Nc1nc(N2CCOCC2)c2oc3ncccc3c2n1)Oc1ccccc1 [Example 22, phenyl(4-morpholinopyrido[3′,2′:4,5]furo[3,2-d]pyrimidin-2-yl)carbamate hydrochloride]
- IC50: > 10 µM

Where a name gives a salt, the structure may show the parent alone.
